According to ChEMBL document CHEMBL1140914, “Synthesis and in vitro and in vivo evaluation of 18F-labeled positron emission tomography (PET) ligands for imaging the vesicular acetylcholine transporter” (J Med Chem, 2009):

assay: Selectivity ratio of Ki for human vesicular acetylcholine transporter to Ki for sigma1 receptor in guinea pig brain membrane; format: cell membranes

| Compound | Ratio Ki |
| --- | --- |
| O=C(c1ccc(F)cc1)C1CCN([C@@H]2Cc3ccccc3C[C@H]2O)CC1 (racemic) | 71 |
| O=C(c1ccc(F)cc1)C1CCN([C@@H]2Cc3ccccc3C[C@H]2O)CC1 (stereo in doubt; (+)-9e) | 1.7 |
| O=C(c1ccc(F)cc1)C1CCN([C@@H]2Cc3ccccc3C[C@H]2O)CC1 (stereo in doubt; (-)-9e) | 160 |
